Measurements published in patent US9751831B2, “Blood brain barrier-penetrating oximes for cholistenerases reactivation” (dated 2017).

Molecular target: hAChE (Homo sapiens, UniProt P22303)
Test: Reactivation of OP (nerve agent model compound)-inhibited hAChE, modified Ellman's assay
Conditions: for Reactivation of Sp-GBC-inhibited ChEs, Relative activity [%], hAChE / Reactivation of Sp-GF-SMe-inhibited ChEs, Relative activity [%], hAChE: 100 μM oxime, relative to sample not treated with OP, 20 min per footnote (1 h); for Relative reactivation, AChE, Sp-GB / Relative reactivation, AChE, Sp-GF / Relative reactivation, AChE, Sp-GA/ETP: mean ± standard deviation
[1] = Table 4, Sp-GB (sarin model)-inhibited hAChE
[2] = Table 4, Sp-GF (cyclosarin model)-inhibited hAChE
[3] = Table 4, tabun model (Sp-GA)/Echothiophate-inhibited hAChE

Structure (SMILES) | Reactivation of Sp-GBC-inhibited ChEs, Relative activity [%], hAChE [%] | Reactivation of Sp-GF-SMe-inhibited ChEs, Relative activity [%], hAChE [%] | Relative reactivation, AChE, Sp-GB [1] | Relative reactivation, AChE, Sp-GF [2] | Relative reactivation, AChE, Sp-GA/ETP [3] | Relative reactivation, AChE, Sp-GA/ETP (Table 5, Sp-GA/ETP-inhibited hAChE) | Relative reactivation, AChE, Sp-GB (Table 5, Sp-GB-inhibited hAChE) | Relative reactivation, AChE, Sp-GF (Table 5, Sp-GF-inhibited hAChE)
Cl.ON=CC1=NCCN1Cc1ccccc1 | 29 | 32 | – | – | – | – | – | –
CC(C)CCN=C(C=NO)N(C)C.Cl | – | – | 0.49 ± 0.03 | 0.08 ± 0.01 | 0.24 ± 0.01 | – | – | –
Cl.ON=CC1=NCCCN1Cc1ccc(Cl)cc1Cl | – | – | – | – | – | 0.29 ± 0.06 | 0.26 ± 0.06 | 0.21 ± 0.01
CN(C)C(C=NO)=Nc1ccccc1.Cl | 9 | 3 | 0.22 ± 0.01 | 0.07 ± 0.01 | 0.16 ± 0.04 | – | – | –
